Assay results as given in PMC5047689 (Disease Models & Mechanisms, 2016).

Tested on: ALK (phospho-ALK-Y1278) and downstream signaling
Experiment: Immunoblotting of ALK signaling in CLB-BAR and CLB-GE neuroblastoma cells
Assay type: cell-based, human
Conditions: 6 h treatment, western blot
Method: Fig. 1. […] Treatment of neuroblastoma cells with the ALK TKIs crizotinib and PF-06463922. (A,B) Proliferation was assessed over 5 days using the resazurin cell proliferation assay in the following neuroblastoma cell lines: CLB-BAR, CLB-GE, CLB-PE, SK-N-AS and IMR32. Neuroblastoma cell line characteristics: CLB-GE – MYCN amplified, 1p deletion, 17q gain, amplified ALK amplicon containing an ALK^F1174V mutation; CLB-BAR – amplified MYCN/ALK, Δexon 4-11, 1p deletion, 17q gain; IMR32 – MYCN, wt sequence but exons 2-4 are amplified, 1p deletion, 17q gain; CLB-PE – 1p gain, amplified MYCN, 17q gain; SK-N-AS – IGF-1 overexpressing, 1p deletion, 1q gain, 17q gain, 17 deletion. […] Cells were harvested and pre-cleared cell lysates were analyzed on SDS PAGE followed by western blotting for ALK, phospho-ALK-Y1278, phospho-ERK5, pan-ERK5 phospho-ERK1/2 and pan-ERK. Actin was employed as a loading control. Protein band intensities were quantified by Image Studio Lite 3.1 and normalized to untreated samples.
The neuroblastoma CLB cell lines were from Valerie Combaret (Centre Leon Berard, France) under material transfer agreement and all cell lines were authenticated during the investigation with Affymetrix Cytoscan High Density array and compared with earlier cytoscans ([Schleiermacher et al., 2003]). […]

C[C@@H](Oc1cc(-c2cnn(C3CCNCC3)c2)cnc1N)c1c(Cl)ccc(F)c1Cl [crizotinib]
ALK Y1278 phosphorylation: loss of tyrosine 1278 (Y1278) phosphorylation on ALK
downstream signaling, pERK1/2 and pERK5: inhibition of downstream signaling
